Measurements taken from PubChem BioAssay (NCI).
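Tested at 5 concentrations; 48 h exposure; 96-well plates; endpoints linearly interpolated, else capped at highest concentration. Abbreviation: GI50, concentration required for 50% inhibition of growth. TGI is the concentration that stops growth completely.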

Experiments:
Test in all cases: NCI tumour cell line growth inhibition, 48 h
A549 NSCLC = tested on: A549 NSCLC
LOX IMVI melanoma = tested on: LOX IMVI melanoma
RXF 393 renal = tested on: RXF 393 renal
OVCAR-3 ovarian = tested on: OVCAR-3 ovarian
IGROV1 ovarian = tested on: IGROV1 ovarian
HOP-62 NSCLC = tested on: HOP-62 NSCLC
ACHN renal = tested on: ACHN renal
BT-549 breast = tested on: BT-549 breast
TK-10 renal = tested on: TK-10 renal
UO-31 renal = tested on: UO-31 renal
U251 CNS = tested on: U251 CNS
HCT-15 colon = tested on: HCT-15 colon
DU-145 prostate = tested on: DU-145 prostate
HL-60(TB) leukemia = tested on: HL-60(TB) leukemia
EKVX NSCLC = tested on: EKVX NSCLC
K-562 leukemia = tested on: K-562 leukemia
RPMI-8226 leukemia = tested on: RPMI-8226 leukemia
MALME-3M melanoma = tested on: MALME-3M melanoma
SK-MEL-2 melanoma = tested on: SK-MEL-2 melanoma
786-0 renal = tested on: 786-0 renal
HCT-116 colon = tested on: HCT-116 colon
MCF7 breast = tested on: MCF7 breast
SR leukemia = tested on: SR leukemia
SK-OV-3 ovarian = tested on: SK-OV-3 ovarian
SF-539 CNS = tested on: SF-539 CNS
SF-295 CNS = tested on: SF-295 CNS
NCI/ADR-RES ovarian = tested on: NCI/ADR-RES ovarian
UACC-62 melanoma = tested on: UACC-62 melanoma
OVCAR-8 ovarian = tested on: OVCAR-8 ovarian
SK-MEL-5 melanoma = tested on: SK-MEL-5 melanoma
OVCAR-5 ovarian = tested on: OVCAR-5 ovarian
NCI-H522 lung = tested on: NCI-H522 lung
NCI-H322M lung = tested on: NCI-H322M lung
HT29 colon = tested on: HT29 colon
T-47D breast = tested on: T-47D breast
SF-268 CNS = tested on: SF-268 CNS
HOP-92 NSCLC = tested on: HOP-92 NSCLC
HS 578T breast = tested on: HS 578T breast
PC-3 prostate = tested on: PC-3 prostate
UACC-257 melanoma = tested on: UACC-257 melanoma
MDA-MB-435 = tested on: MDA-MB-435
NCI-H226 lung = tested on: NCI-H226 lung
SW-620 colon = tested on: SW-620 colon
SK-MEL-28 melanoma = tested on: SK-MEL-28 melanoma
CAKI-1 renal = tested on: CAKI-1 renal
NCI-H460 lung = tested on: NCI-H460 lung
NCI-H23 lung = tested on: NCI-H23 lung
CCRF-CEM leukemia = tested on: CCRF-CEM leukemia
MOLT-4 leukemia = tested on: MOLT-4 leukemia
HCC-2998 colon = tested on: HCC-2998 colon
MDA-MB-231 breast = tested on: MDA-MB-231 breast
M14 melanoma = tested on: M14 melanoma
MDA-N = tested on: MDA-N
SNB-75 CNS = tested on: SNB-75 CNS
COLO 205 colon = tested on: COLO 205 colon
SN12C renal = tested on: SN12C renal
SNB-19 CNS = tested on: SNB-19 CNS
OVCAR-4 ovarian = tested on: OVCAR-4 ovarian
KM12 colon = tested on: KM12 colon

CCC1(O[N+](=O)[O-])CN([N+](=O)[O-])C1
GI50 (A549 NSCLC): > 100 µM | TGI (A549 NSCLC): > 100 µM | GI50 (LOX IMVI melanoma): > 100 µM | TGI (LOX IMVI melanoma): > 100 µM | GI50 (RXF 393 renal): > 100 µM | TGI (RXF 393 renal): > 100 µM | GI50 (OVCAR-3 ovarian): > 100 µM | TGI (OVCAR-3 ovarian): > 100 µM | GI50 (IGROV1 ovarian): > 100 µM | TGI (IGROV1 ovarian): > 100 µM | GI50 (HOP-62 NSCLC): > 100 µM | TGI (HOP-62 NSCLC): > 100 µM | GI50 (ACHN renal): > 100 µM | TGI (ACHN renal): > 100 µM | GI50 (BT-549 breast): > 100 µM | TGI (BT-549 breast): > 100 µM | GI50 (TK-10 renal): > 100 µM | TGI (TK-10 renal): > 100 µM | GI50 (UO-31 renal): > 100 µM | TGI (UO-31 renal): > 100 µM | GI50 (U251 CNS): > 100 µM | TGI (U251 CNS): > 100 µM | GI50 (HCT-15 colon): > 100 µM | TGI (HCT-15 colon): > 100 µM | GI50 (DU-145 prostate): > 100 µM | TGI (DU-145 prostate): > 100 µM | GI50 (HL-60(TB) leukemia): > 100 µM | TGI (HL-60(TB) leukemia): > 100 µM | GI50 (EKVX NSCLC): > 100 µM | TGI (EKVX NSCLC): > 100 µM | GI50 (K-562 leukemia): > 100 µM | TGI (K-562 leukemia): > 100 µM | GI50 (RPMI-8226 leukemia): > 100 µM | TGI (RPMI-8226 leukemia): > 100 µM | GI50 (MALME-3M melanoma): > 100 µM | TGI (MALME-3M melanoma): > 100 µM | GI50 (SK-MEL-2 melanoma): > 100 µM | TGI (SK-MEL-2 melanoma): > 100 µM | GI50 (786-0 renal): > 100 µM | TGI (786-0 renal): > 100 µM | GI50 (HCT-116 colon): > 100 µM | TGI (HCT-116 colon): > 100 µM | GI50 (MCF7 breast): > 100 µM | TGI (MCF7 breast): > 100 µM | GI50 (SR leukemia): 69.3 µM | TGI (SR leukemia): > 100 µM | GI50 (SK-OV-3 ovarian): > 100 µM | TGI (SK-OV-3 ovarian): > 100 µM | GI50 (SF-539 CNS): > 100 µM | TGI (SF-539 CNS): > 100 µM | GI50 (SF-295 CNS): > 100 µM | TGI (SF-295 CNS): > 100 µM | GI50 (NCI/ADR-RES ovarian): > 100 µM | TGI (NCI/ADR-RES ovarian): > 100 µM | GI50 (UACC-62 melanoma): > 100 µM | TGI (UACC-62 melanoma): > 100 µM | GI50 (OVCAR-8 ovarian): > 100 µM | TGI (OVCAR-8 ovarian): > 100 µM | GI50 (SK-MEL-5 melanoma): > 100 µM | TGI (SK-MEL-5 melanoma): > 100 µM | GI50 (OVCAR-5 ovarian): > 100 µM | TGI (OVCAR-5 ovarian): > 100 µM | GI50 (NCI-H522 lung): > 100 µM | TGI (NCI-H522 lung): > 100 µM | GI50 (NCI-H322M lung): > 100 µM | TGI (NCI-H322M lung): > 100 µM | GI50 (HT29 colon): > 100 µM | TGI (HT29 colon): > 100 µM | GI50 (T-47D breast): > 100 µM | TGI (T-47D breast): > 100 µM | GI50 (SF-268 CNS): > 100 µM | TGI (SF-268 CNS): > 100 µM | GI50 (HOP-92 NSCLC): > 100 µM | TGI (HOP-92 NSCLC): > 100 µM | GI50 (HS 578T breast): > 100 µM | TGI (HS 578T breast): > 100 µM | GI50 (PC-3 prostate): > 100 µM | TGI (PC-3 prostate): > 100 µM | GI50 (UACC-257 melanoma): > 100 µM | TGI (UACC-257 melanoma): > 100 µM | GI50 (MDA-MB-435): > 100 µM | TGI (MDA-MB-435): > 100 µM | GI50 (NCI-H226 lung): > 100 µM | TGI (NCI-H226 lung): > 100 µM | GI50 (SW-620 colon): > 100 µM | TGI (SW-620 colon): > 100 µM | GI50 (SK-MEL-28 melanoma): > 100 µM | TGI (SK-MEL-28 melanoma): > 100 µM | GI50 (CAKI-1 renal): > 100 µM | TGI (CAKI-1 renal): > 100 µM | GI50 (NCI-H460 lung): > 100 µM | TGI (NCI-H460 lung): > 100 µM | GI50 (NCI-H23 lung): > 100 µM | TGI (NCI-H23 lung): > 100 µM | GI50 (CCRF-CEM leukemia): > 100 µM | TGI (CCRF-CEM leukemia): > 100 µM | GI50 (MOLT-4 leukemia): > 100 µM | TGI (MOLT-4 leukemia): > 100 µM | GI50 (HCC-2998 colon): > 100 µM | TGI (HCC-2998 colon): > 100 µM | GI50 (MDA-MB-231 breast): > 100 µM | TGI (MDA-MB-231 breast): > 100 µM | GI50 (M14 melanoma): > 100 µM | TGI (M14 melanoma): > 100 µM | GI50 (MDA-N): > 100 µM | TGI (MDA-N): > 100 µM | GI50 (SNB-75 CNS): 68.1 µM | TGI (SNB-75 CNS): > 100 µM | GI50 (COLO 205 colon): > 100 µM | TGI (COLO 205 colon): > 100 µM | GI50 (SN12C renal): > 100 µM | TGI (SN12C renal): > 100 µM | GI50 (SNB-19 CNS): > 100 µM | TGI (SNB-19 CNS): > 100 µM | GI50 (OVCAR-4 ovarian): > 100 µM | TGI (OVCAR-4 ovarian): > 100 µM | GI50 (KM12 colon): > 100 µM | TGI (KM12 colon): > 100 µM
